“And” between values parts separate entries of the source, which are not always exact repeats. Equal entries are not always repeated. Only a part is listed here, and it is no random draw. The source made the active and inactive calls. The call rests on the fitted dose curve; in most records, active means well fitted inhibition curve with a large enough effect; inconclusive means small, poorly fitted or top-dose-only effect; inactive means no such curve, though single readings can be large or run the other way.

The assay can be described thus: qHTS Assay for Identifying the Cell-Membrane Permeable IMPase Inhibitors: Potentiation with Lithium.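 Further: IP1 builds up when IMPase is blocked and the TR-FRET signal falls; plate controls were basal vehicle for no effect and high inhibitor control for full effect; nearly all actives have a fitted effect of over 50% in size.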 The following applies: CHO-M1 cells, IP1 TR-FRET (IP-One), carbachol + lithium; at 59.4 µM (top of the series) unless noted.
On to `CCOP(=O)(Nc1cccc2ccccc12)OCC`, for which the activity, negative = IMPase inhibition was inactive: -8.41%. `COc1cc(C2NCCC3(OCCO3)C2(C)C)cc(OC)c1OC` (stereo unspecified): the activity, negative = IMPase inhibition was inactive: 3.3%. For `Cc1c2c(nc3ccccc13)SC(C(Cl)Cl)C2` (stereo unspecified) the value was inactive: 9.91%.

Take `Cc1cc(=O)[nH]c(N[N+](=O)[O-])n1`: the activity, negative = IMPase inhibition was inactive: -0.706%. For `O=C(OC1CN2CCC1CC2)C12CC3CC(CC(C3)C1)C2` (stereo unspecified) the value was inactive: 29.7% [at 38.3 µM].

`COc1ccc2nc(NP(=O)(c3ccccc3)c3ccccc3)sc2c1`: the activity, negative = IMPase inhibition was inactive: 8.38%. Under `NC(=O)Nc1cc([As](=O)(O)O)cc(I)c1O` stands inactive: 7.98%. As for `COc1ccc(N/C(=N/P(=O)(N2CCOCC2)N2CCOCC2)N2CCOCC2)cc1`, the activity, negative = IMPase inhibition was inactive: -25.1%. Under `Cc1ccc2nc3c(c(C)c2c1)CC(C(Cl)Cl)S3` (stereo unspecified) stands inactive: -0.48%; under `ClCCSc1nnc(-c2cccnc2)o1`, inactive: 3.95%. Consider `O=[As]c1ccc(S(=O)(=O)NCCO)cc1` (stereo unspecified), for which the activity, negative = IMPase inhibition is inactive: 8.17%.

Turning to `[N-]=[N+]=NCC(N)=O`, the activity, negative = IMPase inhibition was inactive: -2.49%. For `O=[N+]([O-])c1cc([N+](=O)[O-])c(-c2ccn[nH]2)s1` the value was inactive: -3.42%; for `CC(C)NC(=O)NP(=O)(Oc1ccccc1)Oc1ccccc1`, inactive: 1.28%.

Turning to `CCN(CC)C(=S)SC(NC=O)C(Cl)(Cl)Cl` (stereo unspecified), the activity, negative = IMPase inhibition is inactive: 1.9% [at 38.3 µM]. Under `Cc1cc(SC(NC(=O)c2ccccc2)C(Cl)(Cl)Cl)nc(C(C)C)n1` (stereo unspecified) stands inactive: 10.7%. Turning to `CN(N=O)C(=N)N[N+](=O)[O-]`, the activity, negative = IMPase inhibition was inactive: -0.17%.

In the case of `Cc1cc(SC(NC=O)C(Cl)(Cl)Cl)ncn1` (stereo unspecified), the activity, negative = IMPase inhibition was inactive: -4.09%. For `O=P(Nc1ccccn1)(c1cccc2ccccc12)c1cccc2ccccc12` the value was inactive: 21.3%. Regarding `COP1(=S)c2c(C)nn(CCC#N)c2N=C(c2ccc(F)cc2)N1C` (stereo unspecified), the activity, negative = IMPase inhibition was inactive: 15.3% [at 38.3 µM]. Turning to `O=C(COc1ccccc1)OC1CN2CCC1CC2` (stereo unspecified), the activity, negative = IMPase inhibition was inactive: 11.6%. For `O=C(O)[C@@H](O)c1ccc([As](=O)(O)O)cc1` the value was inactive: 0.825%; for `CCC(C)N(CC(C)C)C(=S)SC(NC(C)=O)C(Cl)(Cl)Cl` (stereo unspecified), inactive: 13.1%. With `COc1ccc(C2=NCC(CBr)S2)cc1` (stereo unspecified), the activity, negative = IMPase inhibition was inactive: 16.5%. As for `O=[N+]([O-])c1cc([N+](=O)[O-])c(CCNc2ccccc2)c([N+](=O)[O-])c1`, the activity, negative = IMPase inhibition is inactive: -1.7%. For `Cc1ccc(NP(=O)(Oc2ccccc2)Oc2ccccc2)nc1` the value was inactive: 10.7%.

Consider `CC(=O)N1C2C3N(C(C)=O)C1C1N(C(C)=O)C(C(N1C(C)=O)N3C(C)=O)N2C(C)=O`, for which the activity, negative = IMPase inhibition is inactive: -3.11% [at 38.3 µM]. Under `O=[N+]([O-])c1cccc2n[nH]nc12` stands inactive: 15.8% [at 38.3 µM]. `CCN(/C(=N/P(=O)(N1CCOCC1)N1CCOCC1)N1CCOCC1)c1ccc(OC)cc1`: the activity, negative = IMPase inhibition is inactive: 0.887%. For `CC(=O)C1=CCCC2CCC1N2` (stereo unspecified) the value was inactive: 9.41% and inactive: -4.52%; for `CC1CCN(C(=O)Oc2c(Cl)cc(Cl)c3cccnc23)CC1`, inactive: -14.8% [at 38.3 µM]; for `O=C(CO)Nc1ccc([As](=O)(O)O)cc1`, inactive: 1.33%. For `CN(C)C(=O)OCCc1n(C)cc[n+]1C` the value was inactive: -0.189%; for `CC(C)=N/N=C(\N)N[N+](=O)[O-]`, inactive: -5.47%. For `O=[N+]([O-])c1ncn(CCn2ncnc2[N+](=O)[O-])n1` the value was inactive: 2.94%; for `Cc1cc(SC(NC(=O)c2ccc(F)cc2)C(Cl)(Cl)Cl)ncn1` (stereo unspecified), inactive: -7.71%. With `CCOP(=O)(Nc1ccccc1)OCC`, the activity, negative = IMPase inhibition is inactive: -0.118% [at 38.3 µM].

On to `[N-]=[N+]=NCC(O)CN=[N+]=[N-]` (stereo unspecified), for which the activity, negative = IMPase inhibition is inactive: 0.0081%. For `C(Cc1nn[nH]n1)c1nn[nH]n1` the value was inactive: -5.91%. `CCN(N=Nc1nonc1N)c1nonc1N`: the activity, negative = IMPase inhibition is inactive: 7.04%. For the compound `Cc1ccc(N/C(=N/P(=O)(N2CCOCC2)N2CCOCC2)N2CCOCC2)cc1`, the activity, negative = IMPase inhibition was inactive: 1.36%. Under `NC(=O)c1cc([N+](=O)[O-])cc([N+](=O)[O-])c1N` stands inactive: 6.21%; under `CN1CCCC(OC(=O)C(c2ccccc2)c2ccccc2)C1` (stereo unspecified), inactive: 32.3%. Under `Clc1ccc(Cl)c(NC2=NCC(CBr)S2)c1` (stereo unspecified) stands inactive: 17.9%; under `COc1ccccc1OP(=O)(Nc1ccc(C)cn1)Oc1ccccc1OC`, inactive: 12.7%. In the case of `O=[N+]([O-])c1ccc(C[As](=O)(O)O)cc1`, the activity, negative = IMPase inhibition was inactive: -7.75%. For `O=C(NC(Sc1ccncn1)C(Cl)(Cl)Cl)c1ccccc1` (stereo unspecified) the value was inactive: -1.76%; for `Cc1c2non([O-])c-2c(C)[n+](=O)[n+]1[O-]`, inactive: 18.4% [at 38.3 µM]; for `Oc1ccccc1CNc1ccccn1`, inactive: 26.1% [at 38.3 µM]. Consider `CC(C)CC(=O)NC(Sc1ccc(Cl)cc1)C(Cl)(Cl)Cl` (stereo unspecified), for which the activity, negative = IMPase inhibition is inactive: 10.7% [at 38.3 µM]. For `NCC[C@@H](N)CSP(=O)(O)O` the value was inactive: 1.56%; for `CCOc1ccc(C2=NCC(CBr)S2)cc1` (stereo unspecified), inactive: 25.3%. For `O=P1(Nc2nc3ccc(Cl)cc3s2)COc2ccccc2O1` (stereo unspecified) the value was inactive: 5.49% [at 38.3 µM]. Consider `CC(C)(C)C(=O)NC(Sc1ccccc1)C(Cl)(Cl)Cl` (stereo unspecified), for which the activity, negative = IMPase inhibition was inactive: 6.93%.

On to `CC(=O)Nc1ccc(Oc2c([N+](=O)[O-])cc([N+](=O)[O-])cc2[N+](=O)[O-])cc1`, for which the activity, negative = IMPase inhibition was inactive: -3.36%.

Take `CCOC(=O)NC(Sc1ccccc1)C(Cl)(Cl)Cl` (stereo unspecified): the activity, negative = IMPase inhibition was inactive: -0.426% [at 38.3 µM]. Under `c1ccc(-c2nn[nH]n2)c(-c2nn[nH]n2)c1` stands inactive: -2.98%. Take `O=C(NC1CCS(=O)(=O)C1)NP(=S)(Oc1ccccc1)Oc1ccccc1` (stereo unspecified): the activity, negative = IMPase inhibition was inactive: 12.4%.

`CCNC(=S)/N=C(\N)N[N+](=O)[O-]`: the activity, negative = IMPase inhibition was inactive: -2.02%. On to `CCC(=O)N1C2C3N(C(=O)CC)C1C1N(C(=O)CC)C(C(N1C(=O)CC)N3C(=O)CC)N2C(=O)CC`, for which the activity, negative = IMPase inhibition was inactive: 1.22% [at 38.3 µM]. For `CC(=O)NC(SC(=S)N(CC(C)C)CC(C)C)C(Cl)(Cl)Cl` (stereo unspecified), the activity, negative = IMPase inhibition is inactive: 9.63%. Under `Cc1ccc(OP(=O)(Nc2ccccn2)Oc2ccc(C)cc2)cc1` stands inactive: 22%; under `COC(=O)c1cc2c(s1)N=C(c1ccccc1)N(C)P2(=O)N1CCOCC1` (stereo unspecified), inactive: -10.7% [at 38.3 µM]. For the compound `O=c1c2cc([N+](=O)[O-])ccc2[nH]c2c([N+](=O)[O-])cc([N+](=O)[O-])cc12`, the activity, negative = IMPase inhibition was inactive: 25.6%. Under `O=P(Nc1ccccn1)(c1ccc(Br)cc1)c1ccc(Br)cc1` stands inactive: 0.485%; under `CN(C(=O)Cc1ccccc1)[C@H]1CC[C@@]2(CCCO2)C[C@@H]1N1CCCC1`, inactive: 1.24%; under `Cc1cc([N+](=O)[O-])cc([N+](=O)[O-])c1O`, inactive: 12.1%.

Take `[N-]=[N+]=Nc1ccc([As](=O)(O)O)cc1`: the activity, negative = IMPase inhibition was inactive: -2.03%. For `CC(=O)NC(SC(=S)N(C)C)C(Cl)(Cl)Cl` (stereo unspecified) the value was inactive: -3.75%; for `O=C(OC1CN2CCC1CC2)c1cccc(Cl)c1` (stereo unspecified), inactive: 51.3% [at 38.3 µM]; for `C(Cc1nn[nH]n1)Cc1nn[nH]n1`, inactive: -3.01%. For the compound `O=P(Nc1nccs1)(c1ccccc1)c1ccccc1`, the activity, negative = IMPase inhibition was inactive: 24.8% [at 38.3 µM]. Take `CC(C)C(=O)NC(Sc1ccccc1)C(Cl)(Cl)Cl` (stereo unspecified): the activity, negative = IMPase inhibition was inactive: 9.85%. With `c1nnnn1CCn1cnnn1`, the activity, negative = IMPase inhibition was inactive: 18.7% [at 38.3 µM]. Under `CN1CCC[C@H](OC(=O)C(c2ccccc2)c2ccccc2)C1` stands inactive: 22.1%. For `C[C@@H](O)COc1ccc([As](=O)(O)O)cc1N` the value was inactive: 12.7%.
